## scFv variants of Ab-14 (heavy chain) against a SARS-CoV-2 spike peptide

Data: MIT Lincoln Laboratory AlphaSeq set, Engelhart et al. 2022, doi:10.1038/s41597-022-01779-4, as distributed in FLAb.

Antigen: PDVDLGDISGINAS, a 14-residue peptide of the SARS-CoV-2 spike HR2 region.

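Phage display of a naive human antibody library on the peptide gave the parent. Variants in AAYL49 differ from the parent at up to three CDR positions; double and triple changes were sampled at random. Affinity was read by AlphaSeq, a pooled yeast mating assay with surface-displayed partners. Pairs that bind mate more often; barcode pairs of the diploids are counted by sequencing. Scores were corrected for input abundance and mapped to Kd with protein pairs of known affinity run in the same pool. There are three technical replicates.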

The variants keep the light chain, the linker and the frameworks of Ab-14 (scFv order VH, a (GGGGS)3 linker, VL).
VH: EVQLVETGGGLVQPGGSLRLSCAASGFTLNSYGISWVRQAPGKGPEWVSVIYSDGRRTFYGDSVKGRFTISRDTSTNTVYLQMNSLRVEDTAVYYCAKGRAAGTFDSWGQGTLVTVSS
VL: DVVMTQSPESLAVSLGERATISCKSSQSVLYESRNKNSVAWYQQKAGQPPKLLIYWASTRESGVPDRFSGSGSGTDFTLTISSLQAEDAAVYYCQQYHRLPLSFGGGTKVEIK

Variants are written as CDR1, CDR2 and CDR3 of the heavy chain (limits as in the source). Parent: GFTLNSYGIS, VIYSDGRRTFYGDSVK, GRAAGTFDS. Numbers give log10(Kd / nM), so 0 is 1 nM and 3 is 1 µM. Smaller is tighter. Where no diploid with the target was found in that replicate, the entry reads "ND": below detection, most likely a poor binder, though not proof of it.

CDR-H1 | CDR-H2 | CDR-H3 | replicates, log10 nM | signal with controls
GHTLQSYGIS | VIYSDGRRTFYGDAVK | GRAAGTFDS | 2.02 1.97 1.84 | 5/9 (4.16)
GPTLNSYGIN | VKYSDGRRTFYGDSVK | GRAAGTFDS | ND ND ND | 0/9
GFTLNSYFIN | VIYSDGRRTFYGDSVK | GRARGTFDS | ND 3.77 ND | 3/9 (4.92)
GFTLNSYGIS | VIYSDVLRYFYGDSVK | GRAAGTFDS | ND ND ND | 2/9 (3.74)
GFTLNSYGIS | VIYSDGRRTFYGNSVK | GAAAGKFDS | ND ND ND | 0/9
GFTPNSYGIS | VIYSQGRRTFYGDSVK | GRAAGCFDS | ND 3.78 ND | 2/9 (4.36)
YFTLNSYGIS | VIYSDARRTFYGDSVK | GRATGTFDS | ND 3.15 3.69 | 0/9
GFTLNSYGIS | WIYSDGRRTFYGDMVK | GTAAGTFDS | 4.84 ND ND | 1/9 (4.66)
GFTLNSYGIS | VIYSDGRRTFYEDTVK | GRKAGTFDS | 4.04 ND ND | 0/9
GFTLNSYGIS | VIVLDGRRTFYGDSVK | GRAAITFDS | ND ND ND | 0/9
GFTLNSYGIS | VIYSDQRRTFYGSSVK | GRAANTFDS | ND ND ND | 2/9 (3.99)
GFTLNSYGIS | VIYSDGRRTFYGIYVK | GREAGTFDS | ND ND ND | 0/9
GFTLNSYGIS | VIYSDGRRPPYGDSVK | GRAAGTFDC | ND ND ND | 0/9
GFTLNSYMIS | VIYSRGRRTFYGGSVK | GRAAGTFDS | 3.37 ND ND | 1/9 (4.63)
GFTLNSYGIS | VIFQDLRRTFYGDSVK | GRAAGTFDS | ND 5.36 4.20 | 1/9 (3.39)
GFTLNSYGIS | VIWSDGRRTWYGDLVK | GRAAGTFDS | 5.48 3.57 6.17 | 3/9 (4.78)
MFTLNSYGIS | VILSDGRRTFYGDSVK | GRAAGNFDS | ND ND ND | 0/9
GFTLNSYGIS | VIYSDGRSTEYGDSVY | GRAAGTFDS | ND 4.48 ND | 0/9
YFTLNSYGIS | VIISDGRRTFYGDSVK | GRAAGTFDH | ND ND ND | 1/9 (3.38)
GFTLNSYGIS | EIYSDGRRTFYGDSVK | VFAAGTFDS | ND ND ND | 1/9 (3.59)
GFTLNSYGIS | VIYSWGRRTVYTDSVK | GRAAGTFDS | 4.78 ND ND | 4/9 (4.72)
GFTLNSYGIS | VIYSDGRRTIYGDSLT | GRAAGTFDS | ND ND ND | 1/9 (2.86)
GFTLNSNGIS | VIYSDGRRTFYGDSVK | GFAAGTFDG | ND 3.92 5.41 | 3/9 (4.54)
GSTLNSYGIS | VIYSDGRRTFYGDSVK | GQAAGTFLS | ND ND ND | 2/9 (2.97)
GFTLNSYGIS | VIMSDGRRTFYGDSCK | GRCAGTFDS | ND 4.48 5.00 | 2/9 (4.77)
CFTLNSYGIS | VIYSDLRRTFYGDSVK | GRHAGTFDS | ND ND ND | 0/9
GFTLNSYGIS | VIYSDWRRTFYADSVK | GRAHGTFDS | ND 5.32 ND | 1/9 (4.03)
GFTLNSYATS | VIYSDGRRTFYGDSVK | GRAAGTFDG | ND ND ND | 1/9 (4.17)
GFTLNSYGIS | VIYSRGRRTFYGNSVK | GRAAGTFDS | ND 3.32 ND | 1/9 (3.23)
GFTLNSYGIS | VIYSDDRKTFYGDSVK | ERAAGTFDS | ND ND ND | 2/9 (3.78)
GFTLCSYTIS | VIYSDGRRTFGGDSVK | GRAAGTFDS | ND ND ND | 2/9 (3.51)
GFTLNSYYIS | VIYSDGRYTFRGDSVK | GRAAGTFDS | ND ND ND | 0/9
GFTLNSYGIS | VIYSDGRHTFYGDRVK | GRPAGTFDS | ND 3.95 ND | 2/9 (2.88)
GFTLNSYGIS | RIDSDGRRTFYGDSVT | GRAAGTFDS | 5.89 ND ND | 2/9 (2.99)
GFTLNVWGIS | VIYSDGRRTFYGDSVL | GRAAGTFDS | ND ND ND | 1/9 (2.35)
GFTLGSYGIS | VIYSDGRRTFPGDSVK | GGAAGTFDS | ND 5.31 4.46 | 2/9 (5.67)
GFTLNSYGIS | VIYSDGRRTFYWDSVK | GRAAGTFES | 3.36 3.05 5.27 | 1/9 (3.53)
GFTLNSYGIS | VIQSDGMRTFYGKSVK | GRAAGTFDS | ND ND ND | 1/9 (3.68)
GFTLNSYGKS | VIYSDGRRTFYGDSVK | GRAAGRFWS | ND 3.52 ND | 6/9 (4.67)
GPTLNSYEIS | VIYSDGRRTHYGDSVK | GRAAGTFDS | ND ND ND | 1/9 (3.25)
GYTLNSYGIS | VIYSDGRRFFYGDSVK | GRAAGTWDS | ND ND ND | 0/9
GFTLNSYPIS | VIYSDGRRTFYGDSVK | GRAAGTFRS | ND ND ND | 1/9 (4.26)

Excerpt, the first 7 entries:

| CDR-H1 | CDR-H2 | CDR-H3 | replicates, log10 nM | signal with controls |
|---|---|---|---|---|
| GHTLQSYGIS | VIYSDGRRTFYGDAVK | GRAAGTFDS | 2.02 1.97 1.84 | 5/9 (4.16) |
| GPTLNSYGIN | VKYSDGRRTFYGDSVK | GRAAGTFDS | ND ND ND | 0/9 |
| GFTLNSYFIN | VIYSDGRRTFYGDSVK | GRARGTFDS | ND 3.77 ND | 3/9 (4.92) |
| GFTLNSYGIS | VIYSDVLRYFYGDSVK | GRAAGTFDS | ND ND ND | 2/9 (3.74) |
| GFTLNSYGIS | VIYSDGRRTFYGNSVK | GAAAGKFDS | ND ND ND | 0/9 |
| GFTPNSYGIS | VIYSQGRRTFYGDSVK | GRAAGCFDS | ND 3.78 ND | 2/9 (4.36) |
| YFTLNSYGIS | VIYSDARRTFYGDSVK | GRATGTFDS | ND 3.15 3.69 | 0/9 |

As a blank, each scFv also met three strains without target: over library AAYL49, 15% of these pairings were detected, typically at 4.06 and seldom below 2.83. Also given: how often the same scFv was detected with the empty control strains, with their mean in brackets.